Assay results reported in patent US7145032B2, “Therapeutic malonic acid/acetic acid C60 tri-adducts of buckminsterfullerene and methods related thereto” (priority 2002, dated 2006).

Assays:
[1] = Hydration of freeze dried sodium salt; assay type: physicochemical; details: dry weight divided by expected weight for complete neutralization; freeze dried 4 days
[2] = Thermal stability in 1:1 acetonitrile:water at 60°; assay type: physicochemical
Text: The composition was monitored by HPLC, using protocols 2 and 4 (see Table 1).

[3] = Plasma pharmacokinetics and tissue distribution in mice

Row | Hydration of Na salt [1] | Substance | effect on weight (C57B6 mice; C3-treated mice with increased lifespan) | Weights, females (C57B6 mice; at 19 mos, Mean±SD, ctrl 27±1) [g] | Weights, males (C57B6 mice; at 19 mos, Mean±SD, ctrl 35±4) [g] | Thermal Stability t1/2 [2] [h] | plasma T1/2 (plasma half-life) [3] | plasma T1/2 (plasma half-life) ([3]; listed as Hexa) [h]
1 | 4.36 | e,e,e tris acetic acid C60 [Compound C3-lite] | – | – | – | – | – | –
2 | – | e,e,e tris malonic acid C60 [Compound C3] | not accompanied by a reduction in weight | 29 ± 1 | 35 ± 6 | 1 | about 8 hours | 8.2

Where two headings read alike, the source gives them in different places.
